The results in this text go back to patent US20250074946A1, “USE OF SE-DR AFFINITY PEPTIDE IN PREPARING DRUG FOR TREATING RHEUMATIC DISEASE” (HEBEI FITNESS BIOTECHNOLOGY CO., LTD., priority 2021, published 2025).

The assay concerns the target HLA-DR1 (Homo sapiens, UniProt P01903+P01911, A100R/D57E/F55L/F60I/F76Y/I96L/L162R/M171V/P40L/Q125E/R42F/V115G/Y59C). Put plainly: Determination of polypeptide affinity (fluorescence polarization competition). In kind it is binding. A general note: Fluorescence polarisation rises when a labelled molecule tumbles more slowly, as on binding a larger partner.

Regarding `CC(C)C[C@H](NC(=O)[C@H](C)NC(=O)[C@H](CC(C)C)NC(=O)[C@@H](NC(=O)[C@H](C)NC(=O)[C@H](CCC(N)=O)NC(=O)[C@H](CCCCN)NC(=O)[C@H](C)NC(=O)[C@@H](N)Cc1ccc(O)cc1)[C@@H](C)O)C(=O)N[C@@H](C)C(=O)O` [APL7], the IC50 (as a rule, the concentration that inhibits the measured activity by half) stood at 4.63 µM.
